Laboratory results: PubChem BioAssay AID488965 (Broad Institute, 2010)
The list shows a part of the results, in another mix than the full data. Active and inactive are the calls of the source. Rule as the data show it: active = inhibition above about 30% (passing the limit was not always enough); inconclusive = no clear call, values can overlap the other calls.

system: PvdQ acylase [Pseudomonas aeruginosa LESB58]; test: P. aeruginosa PvdQ acylase inhibitors, primary screen, biochemical, fluorescence, plate reader and imaging, single point (AID 488965); conditions: purified PvdQ acylase, at 10 µM, active compounds read high;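 also: 0% = vehicle neutral wells and 100% = reference inhibitor wells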

| SMILES | inhibition |
| --- | --- |
| O=C(OC1CN2CCC1CC2)c1cccc(Cl)c1 (stereo not given) | inactive: -12.5% |
| C(Cc1nn[nH]n1)Cc1nn[nH]n1 | inactive: 2.91% |
| Nc1ccc([As](=O)(O)c2ccc([N+](=O)[O-])cc2)cc1 | inactive: -8.61% |
| O=[As](O)(c1ccccc1)c1ccc(O)cc1 | inactive: 9.8% |
| O=[N+]([O-])c1ccc(O)c(/C=N/Nc2ccc([N+](=O)[O-])cc2[N+](=O)[O-])c1 | inactive: -17.4% |
| CC(=O)NC(SC(=S)N(C)C)C(Cl)(Cl)Cl (stereo not given) | inactive: 4.88% |
| O=[N+]([O-])c1ncn(CCn2cnc([N+](=O)[O-])n2)n1 | inactive: 2.36% |
| C[C@H]1OP(=O)(Oc2ccccc2)[C@H](O)[C@H](O)[C@H]1N=[N+]=[N-] (stereo not given in full) | inactive: -3.94% |
| O=P(Nc1nc2ccccc2s1)(c1ccccc1)c1ccccc1 | inactive: -3.41% |
| O=P(Nc1ccccn1)(c1ccc(Br)cc1)c1ccc(Br)cc1 | inactive: -13.7% |
| CN(C)C1(CNC(=O)c2ccc(Cl)c(S(N)(=O)=O)c2)CCCCC1 | inactive: -9.64% |
| COc1ccc(N)c([N+](=O)[O-])c1[N+](=O)[O-] | inactive: 4.18% |
| c1nnnn1CCn1cnnn1 | inactive: -5.31% |
| CC(C)C(=O)NC(Sc1ccccc1)C(Cl)(Cl)Cl (stereo not given) | inactive: 2.31% |
| O=P(Nc1nccs1)(c1ccccc1)c1ccccc1 | inactive: -11.7% |
| CC(=O)Nc1ccc(Oc2c([N+](=O)[O-])cc([N+](=O)[O-])cc2[N+](=O)[O-])cc1 | inactive: -0.893% |
| CC(=O)Nc1ccc([As](=O)(O)O)c(O)c1 | inactive: -7.37% |
| C[C@H]1OP(=O)(Oc2ccccc2)C[C@@H]2O[C@@H]21 (stereo not given in full) | inactive: -9.04% |
| C[C@@H]1C=CCP(=O)(Oc2ccccc2)O1 (stereo not given in full) | inactive: -6.03% |
| Cc1ccccc1CN(C)C(=O)COC(=O)C(O)(c1ccccc1)c1ccccc1 | inactive: 8.83% |
| COC(=O)C1(C)COP(=O)(NCc2ccccc2)OC1 (stereo not given) | inactive: -4.86% |
| CC(=O)c1ccc(N2CC2c2ccncc2)cc1 (stereo not given) | inactive: -11.9% |
| N#C/C(=C\c1ccc(N(CCBr)CCBr)cc1)C(N)=O | inactive: -2.64% |
| CC(C)(C)C(=O)NC(Sc1ccccc1)C(Cl)(Cl)Cl (stereo not given) | inactive: -12.6% |
| CCc1cc(O)c([N+](=O)[O-])c(C)c1[N+](=O)[O-] | inactive: -14.8% |

| SMILES | inhibition |
| --- | --- |
| CCOc1ccc(C2=NCC(CBr)S2)cc1 (stereo not given) | inactive: 3.4% |
| O=P1(Nc2nc3ccc(Cl)cc3s2)COc2ccccc2O1 (stereo not given) | inactive: -14.1% |
| O=c1c2cc([N+](=O)[O-])ccc2[nH]c2c([N+](=O)[O-])cc([N+](=O)[O-])cc12 | inactive: -10.6% |
| CN(C)C(=O)Oc1noc2ccccc12 | inactive: -1.43% |
| CC(NC(=O)COC(=O)C(O)(c1ccccc1)c1ccccc1)c1ccccc1 (stereo not given) | inactive: -11.1% |
| Cc1ccccc1OP(=O)(Nc1ccccn1)Oc1ccccc1C | inactive: 6.49% |
| CCC(=O)N1C2C3N(C(=O)CC)C1C1N(C(=O)CC)C(C(N1C(=O)CC)N3C(=O)CC)N2C(=O)CC | inactive: -11.2% |
| O=C(OC1CN2CCC1CC2)c1ccccc1 (stereo not given) | inactive: -12.2% |
| CC(=O)NC(SC(=S)N(CC(C)C)CC(C)C)C(Cl)(Cl)Cl (stereo not given) | inactive: -10.6% |
| Cc1ccc(OP(=O)(Nc2ccccn2)Oc2ccc(C)cc2)cc1 | inactive: -3.67% |
| COC(=O)c1cc2c(s1)N=C(c1ccccc1)N(C)P2(=O)N1CCOCC1 (stereo not given) | inactive: -10.7% |
| O=P1(N(CCCl)CCCl)OCCC2CCCCN21 (stereo not given) | inactive: -19.8% |
| Cc1ccc(NP(=O)(Oc2cccc(C)c2)Oc2cccc(C)c2)nc1 | inactive: -8.39% |
| c1ccc(-c2nn[nH]n2)c(-c2nn[nH]n2)c1 | inactive: 0.834% |
| CCNC(=S)/N=C(\N)N[N+](=O)[O-] | inactive: -2.32% |
| O=C(NC1CCS(=O)(=O)C1)NP(=S)(Oc1ccccc1)Oc1ccccc1 (stereo not given) | inactive: -3.08% |
| Nc1cccc2ccc([As](=O)(O)O)cc12 | inactive: -2.61% |
| CCN(N=Nc1nonc1N)c1nonc1N | inactive: -1.32% |
| Cc1ccc(NP(=O)(Oc2ccccc2F)Oc2ccccc2F)nc1 | inactive: -10.5% |
| CN(C(=O)Cc1ccc(Cl)c(Cl)c1)[C@H]1CCCC[C@@H]1N1CCCC1 | inactive: -7.52% |
| Cc1cc(SC(NC(=O)c2ccc(F)cc2)C(Cl)(Cl)Cl)ncn1 (stereo not given) | inactive: 3.19% |
| CCOP(=O)(Nc1ccccc1)OCC | inactive: -14.5% |
| O=P(Nc1nc2ccc(Cl)cc2s1)(c1ccccc1)c1ccccc1 | inactive: -5.9% |
| CCCC1OP(N)(=O)OCC1CC (stereo not given) | inactive: -7.9% |
| CC(=O)Nc1ccc([As](=O)(O)O)cc1 | inactive: -16.1% |

| SMILES | inhibition |
| --- | --- |
| O=C(O)c1ccccc1[As](=O)(O)O | inactive: 1.8% |
| O=C(NC(Sc1ccncn1)C(Cl)(Cl)Cl)c1ccccc1 (stereo not given) | inactive: 0.978% |
| Oc1ccccc1CNc1ccccn1 | inactive: 2.49% |
| Nc1cc(N)c2nonc2c1[N+](=O)[O-] | inactive: -4.29% |
| CC(C)CC(=O)NC(Sc1ccc(Cl)cc1)C(Cl)(Cl)Cl (stereo not given) | inactive: 2.23% |
| CN1CCCC(OC(=O)C(c2ccccc2)c2ccccc2)C1 (stereo not given) | inactive: -3.72% |
| Clc1ccc(Cl)c(NC2=NCC(CBr)S2)c1 (stereo not given) | inactive: 18.6% |
| COc1ccccc1OP(=O)(Nc1ccc(C)cn1)Oc1ccccc1OC | inactive: 9.17% |
| Cc1ccc(N/C(=N/P(=O)(N2CCOCC2)N2CCOCC2)N2CCOCC2)cc1 | inactive: -3.73% |
| CN(C(=O)Cc1ccc(Cl)c(Cl)c1)[C@H]1CCCC[C@H]1N1CCCC1 | inactive: -5.92% |
| NC(=O)c1cc([N+](=O)[O-])cc([N+](=O)[O-])c1N | inactive: -13% |
| CC1CCN(C(=O)Oc2c(Cl)cc(Cl)c3cccnc23)CC1 | inactive: -10.4% |
| CN(C)C(=O)OCCc1n(C)cc[n+]1C | inactive: -4.53% |
| CC(C)=N/N=C(\N)N[N+](=O)[O-] | inactive: -15.3% |
| CCN(/C(=N/P(=O)(N1CCOCC1)N1CCOCC1)N1CCOCC1)c1ccc(OC)cc1 | inactive: -8.27% |
| C[N+]1=C2C=CC=CC=C2SC12C([N+](=O)[O-])=CC([N+](=O)[O-])=C[C-]2[N+](=O)[O-] (stereo not given) | inactive: -1.47% |
| Nc1ccc([As](=O)(O)c2ccc(N)cc2)cc1 | inactive: 0.22% |
| CCc1nc2c(n1)c1c(non1O)c1c2no[n+]1[O-] | inactive: -2.64% |
| O=[N+]([O-])c1cc([N+](=O)[O-])c(CCNc2ccccc2)c([N+](=O)[O-])c1 | inactive: -4.19% |
| Cc1ccc(NP(=O)(Oc2ccccc2)Oc2ccccc2)nc1 | inactive: -7.96% |
| O=[N+]([O-])c1cccc2n[nH]nc12 | inactive: -5.12% |
| CC(=O)N1C2C3N(C(C)=O)C1C1N(C(C)=O)C(C(N1C(C)=O)N3C(C)=O)N2C(C)=O | inactive: -16.9% |
| COc1ccc(C2=NCC(CBr)S2)cc1 (stereo not given) | inactive: -10% |
| O=C(O)CNc1ccc([As](=O)(O)O)cc1 | inactive: -9.09% |
| COC(=O)C1(C)COP(=O)(Nc2ccccc2)OC1 (stereo not given) | inactive: -13.7% |

| SMILES | inhibition |
| --- | --- |
| O=[N+]([O-])c1ncn(CCn2ncnc2[N+](=O)[O-])n1 | inactive: 7.65% |
| CC(C)(C)C(=O)NC(Sc1ccncn1)C(Cl)(Cl)Cl (stereo not given) | inactive: -7.22% |
| O=C(Nc1cc([As](=O)(O)O)ccc1O)c1ccccc1 | inactive: -14.1% |
| O=P1(N(CCCl)CCCl)OCCCS1 (stereo not given) | inactive: -5.83% |
| O=P(Nc1ccccn1)(c1cccc2ccccc12)c1cccc2ccccc12 | inactive: -9.99% |
| Cc1cc(SC(NC=O)C(Cl)(Cl)Cl)ncn1 (stereo not given) | inactive: 2.37% |
| O=[N+]([O-])c1ccc(Nc2ccc(Oc3ccc([N+](=O)[O-])cc3[N+](=O)[O-])cc2)c([N+](=O)[O-])c1 | inactive: -16.4% |
| CCOC(=O)Nc1cccc([As](=O)(O)O)c1 | inactive: 11.3% |
| Cc1cc(SC(NC(=O)c2ccccc2)C(Cl)(Cl)Cl)nc(C(C)C)n1 (stereo not given) | inactive: 6.14% |
| CCCCOc1ccc(C(=O)NCC2(N3CCCCC3)CCCCC2)cc1OC | inactive: -11.1% |
| CCOC(=O)Nc1ccc([As](=O)(O)O)c(O)c1 | inactive: -11.9% |
| CC1CCNP(=O)(N(CCCl)CCCl)O1 (stereo not given) | inactive: -4.88% |
| CCC(C)N(CC(C)C)C(=S)SC(NC(C)=O)C(Cl)(Cl)Cl (stereo not given) | inactive: -11.2% |
| O=C(OC1CN2CCC1CC2)c1cccc([N+](=O)[O-])c1 (stereo not given) | inactive: -15.8% |
| CCOC(=O)c1ccc(NC(=O)C(C)(CCl)SC)cc1 (stereo not given) | inactive: -10.3% |
| O=C(Nc1ccncc1[N+](=O)[O-])c1ccc([N+](=O)[O-])cc1[N+](=O)[O-] | inactive: -5.27% |
| O=C(COc1ccccc1)OC1CN2CCC1CC2 (stereo not given) | inactive: -14.3% |
| COP1(=S)c2c(C)nn(CCC#N)c2N=C(c2ccc(F)cc2)N1C (stereo not given) | inactive: -12.9% |
| O=[N+]([O-])c1cc(Oc2ccc([N+](=O)[O-])cc2C(F)(F)F)cc([N+](=O)[O-])c1 | inactive: 21.9% |
| COc1ccc(N/C(=N/P(=O)(N2CCOCC2)N2CCOCC2)N2CCOCC2)cc1 | inactive: -12.7% |
| O=P1(N(CCCl)CCCl)OCCCN1CCCl (stereo not given) | inactive: -3.8% |
| O=P1(N(CCCl)CCCl)Nc2ccccc2N1 | inactive: 4.92% |
| COc1cc(I)ccc1[As](=O)(O)O | inactive: -9.04% |
| COc1ccc2nc(NP(=O)(c3ccccc3)c3ccccc3)sc2c1 | inactive: -15.1% |
| Cc1c2c(nc3ccccc13)SC(C(Cl)Cl)C2 (stereo not given) | inactive: -3.98% |
